# Screens: PubChem BioAssay, several laboratories
# PABP FP inh – PABP-poly(A) binding inhibition; AID 2014; P11940; calls only at 35 µM; hit rate 1% among 290,000; PABP-poly(A) RNA binding, fluorescence polarization;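 further: calls also rest on retests at 20 µM and on dose response follow-up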
# MLLE-PAM2 inh – blocks PAM2 peptide binding to the PABP1 MLLE domain. GST-MLLE / FITC-PAM2 fluorescence polarization. inhibition, % at 20 µM. hit rate 0.36% among 360,000; in the data active means inhibition above about 35%, passing the limit was not always enough;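 further: plate controls were DMSO wells with GST-MLLE for no effect and wells lacking GST-MLLE protein for full effect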
# eIF4H FP inh – inhibitors of RNA binding by human eIF4H; Q15056; eIF4H fluorescence polarization binding assay; inhibition, % at 35 µM; hit rate 0.94% among 290,000; AID 2012;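 further: calls also rest on retests at 20 µM and on dose response follow-up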
# Yeast UUG start – modulators of start codon recognition fidelity in yeast; AID 602363; activity score, % at 18.7 µM; S. cerevisiae UUG-firefly luciferase reporter, luminescence/redox ratio; actives 0.13% (n = 350,000);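 active = replicate mean at a twofold rise or more, about +100% in these data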;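 note: firefly luciferase made from a UUG start codon reports start codon fidelity; reporter light over untreated wells divided by growth signal over untreated wells; some hits fall short of that in this replicate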
# Pemphigus Ab inh – blocks pemphigus antibody binding to human desmoglein-3; binding (percent of control), % at 10 µM; P32926; DSG3-coupled beads, scFv-anti-DSG3-GFP binding, flow cytometry; hits give low values; hit rate 0.48% among 310,000;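 active means binding more than 3 SD below its plate's average and above zero; inconclusive means below that plate limit but binding exactly zero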;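 further: hits lower antibody fragment binding to DSG3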
# Numbers without * were called inactive; i = inactive; u = inconclusive; x = not tested or not shown; + = active, no number. This is a sample that favours compounds with a hit; in the whole collection about 1.5% have one here. Unless noted, how the calls were made is not given here.
No.	Molecule	Yeast UUG start	PABP FP inh	eIF4H FP inh
1	O=[N+]([O-])c1ccc(N/N=C\c2ccccc2OCc2ccccc2)cc1	x	+	23.3*
2	O=C(CCN1CCCCC1)N[C@H]1CC[C@@H](CCNS(=O)(=O)c2ccccc2)O[C@H]1CO	5.6	x	x
3	O=C(NCc1ccco1)c1c2c(nc3ccccc13)CCC2	-2.3	+	89.1*
4	COc1ccc2cc3c(N)c(C(=O)NCc4ccco4)sc3nc2c1	-27.1	i	u
5	O=C(NCc1ccc(F)cc1)c1c2c(nc3ccccc13)CCC2	x	i	71.1*
6	Nc1c(C(=O)NCc2ccco2)sc2nc3c(cc12)C(=O)CCC3	-4.0	+	88.8*
7	CO[C@@H](CCO)[C@@H](O)c1ccc(O)c(F)c1	21.9	x	x
8	COCC(=O)Nc1ccc2c(c1)[C@@H]1C[C@@H](CC(=O)NC3CCCC3)O[C@H](CO)[C@@H]1O2	-5.3	x	x

No.	Pemphigus Ab inh	MLLE-PAM2 inh
1	76.8	-113.1
2	x	x
3	104.2	5.7
4	97.4	-12.5
5	102.8	-24.7
6	93.9	14.4
7	x	x
8	x	x

# Next results follow:
No.	Molecule	Yeast UUG start	PABP FP inh	eIF4H FP inh
9	COc1ccccc1C#Cc1ccc2c(c1)O[C@H](CN(C)C(C)=O)[C@H](C)CN([C@H](C)CO)S2(=O)=O	31.0	x	x
10	Cc1ccc(-c2nn(-c3ccccc3)cc2C(=O)O)o1	x	+	101.9*
11	Cc1ccccc1-c1nc(S(=O)(=O)c2ccccc2)c(N2CCCC2)o1	-19.8	x	x
12	COc1ccc(-c2nc(S(=O)(=O)c3ccccc3)c(N3CCCC3)o2)cc1	4.0	x	x
13	COc1ccccc1C(=O)Nc1ccc2c(c1)OC[C@H](C)N(C)C[C@H](C)[C@H](OC)CN(C)C2=O	17.8	x	x
14	CCCN(CCC)S(=O)(=O)c1ccc(C(=O)OCCN2C(=O)c3cccc4c(N5CCOCC5)ccc(c34)C2=O)cc1	x	+	128.6*
15	O=C(OCCN1C(=O)c2cccc3c(N4CCOCC4)ccc(c23)C1=O)c1ccc(Cl)cc1	x	i	u
16	C[C@H](CO)N1C[C@H](C)[C@H](CN(C)Cc2ccc(C(=O)O)cc2)Oc2c(NS(=O)(=O)c3cn(C)cn3)cccc2C1=O	-9.1	x	x

No.	Pemphigus Ab inh	MLLE-PAM2 inh
9	x	x
10	x	x
11	99.6	41.6*
12	105.0	19.1
13	x	x
14	255.1	111.9
15	x	-11.8
16	x	x

# (further entries)
No.	Molecule	Yeast UUG start	PABP FP inh	eIF4H FP inh
17	COC(=O)c1sc(N2C(=O)C(O)=C(C(=O)c3ccc(C)o3)C2c2cccs2)nc1C (configuration not stated)	-14.4	i	-1.9
18	COC(=O)c1sc(N2C(=O)C(O)=C(C(=O)c3ccc(C)o3)C2c2ccco2)nc1C (configuration not stated)	-36.2	+	52.2*
19	O=C(O)c1cccc(NS(=O)(=O)c2ccc3c(c2)OCCCO3)c1	-24.8	i	-2.1
20	O=C(O)c1cccc(S(=O)(=O)Nc2ccc3c(c2)OCO3)c1	-14.2	i	6.6
21	Cc1noc(C)c1S(=O)(=O)Nc1ccc2c(c1)C(=O)N([C@@H](C)CO)C[C@@H](C)[C@@H](CN(C)S(=O)(=O)c1ccc(F)cc1)OCCCC[C@@H](C)O2	-10.9	x	x
22	O=C1CN(C(=O)/C=C/c2ccco2)c2ccccc2N1	-14.4	i	71.4*
23	COc1cccc(S(=O)(=O)N[C@@H]2C=C[C@@H](CC(=O)NCc3ccccc3)O[C@H]2CO)c1	-2.9	x	x
24	CN1C(=O)c2cc(NC(=O)c3cccc(Cl)c3)ccc2OC[C@H]2O[C@@H](CC(=O)NC3CCCCC3)CC[C@H]21	-2.9	x	x

No.	Pemphigus Ab inh	MLLE-PAM2 inh
17	104.3	-34.4
18	x	-18.9
19	119.3	-0.3
20	101.3	38.3*
21	x	x
22	104.9	-16.1
23	x	x
24	x	x

# The list continues.
No.	Molecule	Yeast UUG start	PABP FP inh	eIF4H FP inh
25	CCC(=O)N(CC)c1nc(-c2ccc(OC)cc2)cs1	-6.0	i	1.3
26	CCC(=O)N(Cc1ccco1)c1nc(-c2ccc(OC)cc2)cs1	-15.6	i	9.6
27	COc1ccccc1NC(=O)N1CC[C@@H]2[C@@H](CO)N(C)c3ccc(-c4cccc(F)c4)cc3[C@@H]21	8.8	x	x
28	Cc1nn2c3c(cnc2c1-c1ccccc1)C(=O)CCC3	-19.7	i	-2.1
29	Cc1nn2c3c(cnc2c1-c1ccc(Cl)cc1)C(=O)CC(c1ccco1)C3 (configuration not stated)	4.4	+	61.4*
30	CN(C)C(=O)C[C@H]1CC[C@H](NC(=O)C2CC2)[C@@H](CO)O1	-18.9	x	x
31	CC(C)NC(=O)N(C)C[C@H]1Oc2ccc(NS(=O)(=O)c3cn(C)cn3)cc2C(=O)N([C@H](C)CO)C[C@H]1C	-14.1	x	x
32	N#CC1=C(N)OC2=C(CC/C2=C\c2ccccc2)C1c1ccccc1 (configuration not stated)	-5.7	u	u

No.	Pemphigus Ab inh	MLLE-PAM2 inh
25	73.5*	16.7
26	98.1	-15.5
27	x	x
28	103.8	-4.8
29	97.3	-1.5
30	x	x
31	x	x
32	345.5	72.8

# Complete entries, looked up by structure. Order of values: Yeast UUG start, PABP FP inh, eIF4H FP inh, Pemphigus Ab inh, MLLE-PAM2 inh
# `CCC(=O)N(Cc1ccco1)c1nc(-c2ccc(OC)cc2)cs1` across the screens: -15.6, i, 9.6, 98.1, -15.5
# `COc1ccccc1NC(=O)N1CC[C@@H]2[C@@H](CO)N(C)c3ccc(-c4cccc(F)c4)cc3[C@@H]21` across the screens: 8.8, x, x, x, x
# `Cc1nn2c3c(cnc2c1-c1ccccc1)C(=O)CCC3` across the screens: -19.7, i, -2.1, 103.8, -4.8

# Other entries follow:
No.	Molecule	Yeast UUG start	PABP FP inh	eIF4H FP inh
33	N#CC1=C(N)OC2=C(CC/C2=C\c2ccccc2Cl)C1c1ccccc1Cl (configuration not stated)	x	+	58.9
34	CCn1cnc2c1c(=O)n(CC(=O)NCC(F)(F)F)c(=O)n2Cc1ccccc1	-11.1	+	99.2*
35	C=CCSc1nc(N)c(C#N)c(-c2ccccc2)c1C#N	-17.5	i	8.4
36	CCOC(=O)Nc1cccnc1Sc1ccc(Cl)cc1	7.2	x	x
37	COc1ccc(C(=O)Nc2cccnc2Sc2ccc(Cl)cc2)cc1	-8.7	i	3.4
38	O=C(C[C@H]1CC[C@@H](NC(=O)Nc2cc(F)ccc2F)[C@H](CO)O1)Nc1ccccc1	-9.5	x	x
39	CCc1nnc(NS(=O)(=O)c2ccc(NS(=O)(=O)c3ccc(NC(C)=O)cc3)cc2)s1	x	i	3.3
40	CC(=O)Nc1ccc(S(=O)(=O)Nc2nnc(CC(C)(C)C)s2)cc1	x	i	-0.6

No.	Pemphigus Ab inh	MLLE-PAM2 inh
33	107.8	101.6
34	109.1	-53.9
35	81.5*	-9.0
36	106.7	13.4
37	80.4*	-10.2
38	x	x
39	x	x
40	114.5	42.8*

# Next results
No.	Molecule	Yeast UUG start	PABP FP inh	eIF4H FP inh
41	COCCOC(=O)N1C(=O)[C@@]2(c3ccccc31)[C@H](C(=O)N1CCN(c3ncccn3)CC1)[C@H]1C(=O)O[C@H](c3ccccc3)[C@H](c3ccccc3)N1[C@@H]2c1ccccc1OCCO	-15.4	x	x
42	CCNc1nc2[nH]c(=O)c3c(c2s1)OC(N)=C(C#N)C3c1ccc(C)cc1 (configuration not stated)	-18.0	+	u
43	C[C@@H]1CCCCO[C@@H](CN(C)C(=O)Nc2ccc(F)cc2)[C@H](C)CN([C@H](C)CO)C(=O)c2cc(NS(=O)(=O)c3ccc(Cl)cc3)ccc2O1	-9.6	x	x
44	CCC(SC1=NCCS1)C(=O)Nc1ccc(S(N)(=O)=O)cc1 (configuration not stated)	-19.4	i	7.4
45	C[C@H](CO)N1C[C@H](C)[C@@H](CN(C)C(=O)CCCN(C)C)OCCCC[C@H](C)Oc2ccc(NC(=O)CCC(F)(F)F)cc2C1=O	1.3	x	x
46	CCCNc1nc2ccccc2c(=O)[nH]1	-13.4	i	-3.5
47	CCCNc1cc(=S)nc(N)[nH]1	-34.4	u	u
48	CC(=O)c1cc2c(cc1NC(=O)c1ccc(Cl)cc1)OCCO2	-0.8	i	-12.4
49	CC(=O)Nc1cc2c(cc1C(C)=O)OCCO2	-11.7	i	-8.8
50	O=C(C[C@@H]1C[C@H]2c3cc(NC(=O)CC4CC4)ccc3O[C@H]2[C@H](CO)O1)NCc1ccccc1	-5.9	x	x

No.	Pemphigus Ab inh	MLLE-PAM2 inh
41	x	x
42	x	-7.8
43	x	x
44	135.7	40.8*
45	x	x
46	98.5	11.6
47	99.7	41.9*
48	31.1*	8.4
49	x	-14.4
50	x	x
